Assay results from US10189845B2, “4,6-substituted-pyrazolo[1,5-a]pyrazines as janus kinase inhibitors” (ARRAY BIOPHARMA INC., priority 2014, dated 2019).

Protein sequences, listed by entry. Tags and fused reporters are not part of them. Lines headed by an entry give the natural chain unless they say otherwise; changes in a name come on top.
UniProt P52333: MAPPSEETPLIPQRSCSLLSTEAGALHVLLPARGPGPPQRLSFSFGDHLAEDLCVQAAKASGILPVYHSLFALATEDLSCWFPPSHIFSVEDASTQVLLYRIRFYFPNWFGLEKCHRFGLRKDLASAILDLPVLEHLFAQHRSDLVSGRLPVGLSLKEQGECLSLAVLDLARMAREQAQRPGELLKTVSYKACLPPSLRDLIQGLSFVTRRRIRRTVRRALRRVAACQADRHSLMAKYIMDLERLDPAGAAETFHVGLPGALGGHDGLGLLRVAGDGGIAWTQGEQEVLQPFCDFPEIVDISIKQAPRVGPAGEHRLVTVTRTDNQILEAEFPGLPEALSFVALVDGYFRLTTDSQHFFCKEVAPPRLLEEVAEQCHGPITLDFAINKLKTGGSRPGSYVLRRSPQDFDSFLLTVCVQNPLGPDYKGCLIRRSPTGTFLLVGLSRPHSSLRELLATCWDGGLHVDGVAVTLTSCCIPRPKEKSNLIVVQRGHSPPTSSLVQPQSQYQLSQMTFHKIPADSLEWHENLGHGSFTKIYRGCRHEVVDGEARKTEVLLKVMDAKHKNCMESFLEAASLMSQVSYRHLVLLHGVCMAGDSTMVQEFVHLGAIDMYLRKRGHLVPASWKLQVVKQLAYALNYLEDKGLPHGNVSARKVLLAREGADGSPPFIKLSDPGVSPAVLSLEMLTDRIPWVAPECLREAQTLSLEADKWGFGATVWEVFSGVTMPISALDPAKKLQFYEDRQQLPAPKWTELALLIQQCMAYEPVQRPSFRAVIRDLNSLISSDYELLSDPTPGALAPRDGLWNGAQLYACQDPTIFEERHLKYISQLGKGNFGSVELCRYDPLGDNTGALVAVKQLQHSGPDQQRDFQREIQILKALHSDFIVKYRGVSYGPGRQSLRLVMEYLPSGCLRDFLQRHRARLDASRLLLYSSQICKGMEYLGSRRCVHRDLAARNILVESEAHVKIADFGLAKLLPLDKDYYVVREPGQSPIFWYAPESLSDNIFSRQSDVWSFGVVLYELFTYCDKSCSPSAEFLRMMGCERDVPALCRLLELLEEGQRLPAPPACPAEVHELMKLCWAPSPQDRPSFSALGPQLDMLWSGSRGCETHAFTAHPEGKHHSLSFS
UniProt P23458: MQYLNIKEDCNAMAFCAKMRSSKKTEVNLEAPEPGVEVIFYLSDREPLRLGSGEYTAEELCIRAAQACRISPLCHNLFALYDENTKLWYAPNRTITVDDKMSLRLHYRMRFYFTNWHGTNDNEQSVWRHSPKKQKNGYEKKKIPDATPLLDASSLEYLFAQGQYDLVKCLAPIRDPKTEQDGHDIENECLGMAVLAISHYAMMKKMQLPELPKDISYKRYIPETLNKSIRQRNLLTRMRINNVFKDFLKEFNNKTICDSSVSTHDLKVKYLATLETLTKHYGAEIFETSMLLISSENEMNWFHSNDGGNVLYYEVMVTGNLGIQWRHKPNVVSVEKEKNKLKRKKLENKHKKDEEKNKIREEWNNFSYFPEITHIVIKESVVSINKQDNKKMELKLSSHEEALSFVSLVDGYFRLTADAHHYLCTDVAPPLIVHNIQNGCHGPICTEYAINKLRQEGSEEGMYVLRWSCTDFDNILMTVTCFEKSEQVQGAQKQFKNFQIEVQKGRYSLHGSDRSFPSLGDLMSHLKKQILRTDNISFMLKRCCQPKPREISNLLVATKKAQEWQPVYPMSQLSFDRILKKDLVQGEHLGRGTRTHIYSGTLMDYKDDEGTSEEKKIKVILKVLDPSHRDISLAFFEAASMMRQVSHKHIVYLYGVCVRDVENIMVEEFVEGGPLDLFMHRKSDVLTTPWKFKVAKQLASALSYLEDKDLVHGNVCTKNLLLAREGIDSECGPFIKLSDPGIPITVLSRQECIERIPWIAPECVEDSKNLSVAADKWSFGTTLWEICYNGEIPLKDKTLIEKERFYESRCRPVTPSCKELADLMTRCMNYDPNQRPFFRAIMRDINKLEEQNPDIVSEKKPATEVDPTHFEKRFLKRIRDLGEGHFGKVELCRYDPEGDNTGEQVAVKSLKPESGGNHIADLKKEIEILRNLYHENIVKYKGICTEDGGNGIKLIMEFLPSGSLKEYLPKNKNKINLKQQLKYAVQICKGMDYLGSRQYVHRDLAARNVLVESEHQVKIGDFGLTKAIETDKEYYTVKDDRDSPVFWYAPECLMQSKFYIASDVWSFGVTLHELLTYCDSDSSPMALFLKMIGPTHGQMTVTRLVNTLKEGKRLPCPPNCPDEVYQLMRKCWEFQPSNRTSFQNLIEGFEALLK

Experiments:
JAK3 = JAK3 (Homo sapiens (Human), UniProt P52333); assay: JAK3 Inhibition Assay (Example D, Omnia kinase fluorescence peptide substrate assay); format: biochemical
From the text: (§1) The assays described in Examples A, B, C and D for the determination of Tyk2, JAK1, JAK2 and JAK3 kinase activity, respectively, utilized the Omnia® Kinase fluorescence peptide substrate-based technology (Invitrogen). The specific components of the assay mixture are described in Examples A, B, C and D. In these assays, Mg^2+ is chelated upon phosphorylation of the Omnia peptide by the kinase to form a bridge between the chelation-enhanced fluorophore Sox and the phosphate, resulting in an increase in fluorescence emission at 485 nm when excited at […]. The reactions were therefore read at excitation 360 nm and emission was measured at 485 nm every 50 seconds for 45 minutes using a PerkinElmer EnVision Multilabel Plate Reader.
(§2) The final buffer conditions for Tyk2, JAK1, JAK2, and JAK3 assays were as follows: 25 mM HEPES, pH 7.4, 10 mM MgCl2, 0.01% Triton X-100 and 1 mM DTT.
(§3) Two-μL aliquots of these were transferred to a fresh plate for a ten-fold intermediate dilution with assay buffer. Five-μL aliquots of the diluted compounds were then transferred to 20-μL of assay mixtures described in Examples A, B, C and D for a final concentration of DMSO of 2%. […] For each plate, percent of control (POC) values were calculated for each well according to the following equation: […]
(§4) IC50's were estimated from the POC's using a standard 4-parameter logistic model: […]

JAK1 = JAK1 (Homo sapiens (Human), UniProt P23458); assay: JAK1 Inhibition Assay (Example B, Omnia kinase fluorescence peptide substrate assay); format: biochemical; details: JAK1 Enzyme IC50 1 mM ATP, averaged IC50 ranges
From the text: as §1, §2, §3, §4

IC50 (JAK3) | IC50 (JAK1) | SMILES
1000 to 10000 nM | 100 to 1000 nM | CC[C@H](CC(F)(F)F)n1cc(-c2nc(-c3cnn(C[C@@H](O)CO)c3)cn3nccc23)cn1 (single isomer, unassigned) [Example 209]
1000 to 10000 nM | – | CCC(CC(F)(F)F)n1cc(-c2nc(-c3cnn(C[C@@H](O)CO)c3)cn3nccc23)cn1 (single isomer, unassigned) [Example 210]
– | 1000 to 10000 nM | CC(C)[C@H](C)n1cc(-c2nc(-c3cnn(C[C@@H](O)CO)c3)cn3nccc23)cn1 [Example 80, (R)-3-(4-(4-(1-((S)-3-methylbutan-2-yl)-1H-pyrazol-4-yl)pyrazolo[1,5-a]pyrazin-6-yl)-1H-pyrazol-1-yl)propane-1,2-diol]
